The text below walks through data of PubChem BioAssay AID743019 (Broad Institute, 2013).

The list shows a part of the results, in another mix than the full data. Calls of active or inactive are those of the source.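 Rule for the calls: active = rising signal whose fitted curve reaches the 0.54 level within the top valid dose, showing a melting point (actives reach about 13 µM in these data); inactive = the rest, including activity in the opposite direction.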

The test is described as follows: SYPRO orange dye artefact, no FGF22 present – biochemical, cherry-picked samples, RT-PCR instrument, artefact control for FGF22 binder project, dose response (AID 743019). Note: value is where the raw curve crosses a fixed level and not half-maximal. The following applies: compound-only SYPRO orange thermal shift counter-screen, no protein; at 38 µM (top of the series). (The purpose of a counterscreen is to sort out artefacts and off-target activity.)
Consider `CN(Cc1cccnc1)C(=O)COc1ccc(Cl)c(Cl)c1.O=[N+]([O-])c1cc([N+](=O)[O-])c(O)c([N+](=O)[O-])c1`, for which the result was inactive.
The result for `CCN(CC)CCCNc1ccccc1[N+](=O)[O-].O=[N+]([O-])c1cc([N+](=O)[O-])c(O)c([N+](=O)[O-])c1` reads “inactive”.
